Values quoted from earlier work as cited in patent publication US20200306210A1, “CHANGING COGNITIVE FUNCTION WITH FENFLURAMINE” (ZOGENIX INTERNATIONAL LIMITED, priority 2017, published 2020).

Tested on: serotonin 5-HT2 receptors
Settings: cited from earlier work

CCNC(C)Cc1cccc(C(F)(F)F)c1 (racemic) [fenfluramine, (RS)—N-ethyl-1-[3-(trifluoromethyl)phenyl]propan-2-amine]
Binding to serotonin 5-HT2 receptors: very weakly
